Consider one compound from patent publication US7691382B2, “Antiviral polypeptides comprising tandem repeats of APOE 141-149 and variants thereof” (priority 2003, dated 2010).

Usually IC50 stands for the concentration that inhibits the measured activity by half.

The subject of the assay is HSV1. The assay is classed as cell-based, Human herpes simplex virus type 1. Here is the method:
African Green Monkey Kidney (Vero) cells were maintained in Eagle's minimum essential medium with Earle's salt (EMEM) and supplemented with 10% foetal calf serum (heat-inactivated), 4 mM L-glutamine, and 1% (v/v) nonessential amino acids, plus penicillin and streptomycin (100 IU/mg and […], respectively) (maintenance medium referred to as 10% EMEM). The cells were incubated at 37° C. in a humidified atmosphere of air with 5% CO2.
On harvesting, monolayers were washed in phosphate-buffered saline (PBS), and dislodged by incubating with trypsin in PBS for 30 min, before inactivating trypsin by addition of an equal volume of 10% EMEM and centrifuging at 500 g (5 min, 4° C.). Cell pellets were resuspended in 10% EMEM, prior to cell counting and seeding of 24-well plates. For antiviral assays, medium containing only 0.5% FCS was used (referred to as 0.5% EMEM).
Three separate passages of HSV1 virus were prepared by infecting Vero cells, and preparing semi-pure suspensions of virus from tissue culture supernatant and cell lysates, before freezing aliquots of virus at −85° C. Viral infectivity was assessed by carrying out plaque assays on serial dilutions of thawed aliquots (expressed in pfu/ml).
Peptides were obtained in lyophilised form from a commercial supplier (AltaBioscience, University of Birmingham or Advanced Biomedical), and were produced at 5 micromole scale. N-terminals were protected by addition of an acetyl group, and the C-terminals were protected by addition of an amide group.
Small quantities of peptide were weighed in sterile Eppendorf tubes, before addition of sufficient 0.5% EMEM to produce a 1.5 mM stock solution, which was frozen at −20° C. in aliquots.
Vero cells were seeded at 125,000 cells per well in 10% EMEM, and were incubated overnight resulting in confluent monolayers. […] Plaques were counted using an Olympus IX70 Inverting Microscope, and antiviral effect expressed as a percentage of the control value for each peptide concentration. The IC50 was calculated from plots of inhibitory effect against peptide concentration. […]

Structures are written as SMILES. Like-named read-outs stand apart in the source and are kept apart here.

With `CC(=O)N[C@@H](CCC(N)=O)C(=O)N[C@@H](CO)C(=O)N[C@H](C(=O)N[C@@H](CCC(=O)O)C(=O)N[C@@H](CCC(=O)O)C(=O)N[C@@H](CC(C)C)C(=O)N[C@@H](CCCNC(=N)N)C(=O)N[C@H](C(=O)N[C@@H](CCCNC(=N)N)C(=O)N[C@@H](CC(C)C)C(=O)N[C@@H](C)C(=O)N[C@@H](CO)C(=O)N[C@@H](Cc1c[nH]cn1)C(=O)N[C@@H](CC(C)C)C(=O)N[C@@H](CCCNC(=N)N)C(=O)N[C@@H](CCCCN)C(=O)N[C@@H](CC(C)C)C(=O)N[C@@H](CCCNC(=N)N)C(=O)N[C@@H](CCCCN)C(=O)N[C@@H](CCCNC(=N)N)C(=O)N[C@@H](CC(C)C)C(=O)N[C@@H](CC(C)C)C(N)=O)C(C)C)[C@@H](C)O` [GIN 11], the “efficacy for reducing HSV1 infectivity (in words)” value (Examples 2 and 3) is recorded as “no, or poor, efficacy”. Moreover, the concentration for half-maximal inhibition (IC50) by setting is: (HSV1, Vero cells, Table 4 (Example 2), read-out: Apparent IC50) 36.5 µM; (HSV-1, Vero cells, Table 6 (Example 3), read-out: IC50) 36.5 µM.
